These results are taken from PubChem BioAssay AID504692 (The Scripps Research Institute Molecular Screening Center, 2011).

The chains behind the UniProt entries cited, without tags or fusion partners.
UniProt P47898, whole entry, looked up: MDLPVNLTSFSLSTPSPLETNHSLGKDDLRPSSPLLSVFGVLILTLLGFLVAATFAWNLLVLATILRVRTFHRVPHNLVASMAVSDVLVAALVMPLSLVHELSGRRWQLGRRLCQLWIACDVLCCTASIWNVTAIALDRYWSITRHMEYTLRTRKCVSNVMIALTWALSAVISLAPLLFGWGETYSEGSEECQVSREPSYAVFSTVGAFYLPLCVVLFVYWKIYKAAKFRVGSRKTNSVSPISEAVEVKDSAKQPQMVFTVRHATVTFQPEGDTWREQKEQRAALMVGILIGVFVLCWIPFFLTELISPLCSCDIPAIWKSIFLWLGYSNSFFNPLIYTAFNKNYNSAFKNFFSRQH

This is a selection; strong and weak results do not stand in their true shares. Active and inactive are the calls of the source. Cut-off read from the data, not from the text of the source: active = activation mostly above about 9.5% (no sharp cut-off); inactive = mostly below about 7.6%.

For this test, the target named is 5-hydroxytryptamine receptor 5A (Homo sapiens) (UniProt P47898). Description: HTR5A agonists in luminescence cell assay, primary screen, counter-screen for OPRM1-OPRD1 heterodimer agonist project, full-deck HTS (AID 504692).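 Note: 0% = cells with vehicle only and 100% = reference agonist.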 To be noted: cell-based, at 9.3 µM, active compounds read high. (In general: A counterscreen serves to expose hits that act by an unwanted route or on another target.)
In the case of `CC(C)C[C@H](NC(=O)N1CCn2c1nc1ccccc12)C(=O)NC1CCCCC1`, the activation is inactive: 2.71%.
Under `O=C(Nc1ccc2c(c1)nc1n2CCN(Cc2ccccc2)C1)NC1CCCCC1` stands inactive: 2.36%.
In the case of `CCOC(=O)c1c(NC(=O)Cn2c(C)nc3ccccc32)sc2c1CCC2` it was inactive: 4.14%.
Turning to `Cn1c(=O)c2c(ncn2CC(=O)N2CCN(c3ccc([N+](=O)[O-])cc3)CC2)n(C)c1=O`, the activation is inactive: 1.74%.
In the case of `CN1CCC(N(C)c2ncnc3ccc(Br)cc23)CC1` it was inactive: -2.4%; in that of `CCc1nc2ccccc2n1CC(=O)N(C(C)CC)C1CCS(=O)(=O)C1` (stereo not given), inactive: -3.28%; in that of `COC(=O)[C@H](Cc1ccc(O)cc1)NC(=O)Cn1cnc2c(NCc3ccccc3)ncnc21`, inactive: 5.09%.
Under `Cn1c(=O)n(CC(=O)N2CCN(c3nnc(-c4ccccc4)c4ccccc34)CC2)c2ccccc21` stands inactive: -4.9%; under `CC(C)=N/N=C(\N)N[N+](=O)[O-]`, inactive: 3.34%.
Consider `CCN(CC)CCn1c(NCc2cccc(OC)c2OC)nc2ccccc21`, for which the activation was inactive: -1.85%.
Under `NNC(=O)Cn1c(SCc2ccccc2)nc2ccccc21` stands inactive: 4.54%.
In the case of `O=C(Cn1cnc2c(OCc3ccccc3)ncnc21)NCCCN1CCCC1=O` it was inactive: 3.74%; in that of `CN(C)C(=O)OCCc1n(C)cc[n+]1C`, inactive: -2.68%.
In the case of `CC1CCN(C(=O)Oc2c(Cl)cc(Cl)c3cccnc23)CC1` it was inactive: 0.42%; in that of `N=c1n(CCN2CCOCC2)c2ccccc2n1CC(=O)c1cccc([N+](=O)[O-])c1`, inactive: 2.65%; in that of `CNC(=O)Cc1nc2ccccc2n1CC(=O)Nc1cc(C)cc(C)c1`, inactive: 5.09%.
As for `O=C1CC(C(=O)Nc2cccc(F)c2)n2c(nc3ccccc32)N1` (stereo not given), the activation was inactive: -0.2%.
Under `CCSc1nc2ccccc2n1CC(=O)N1CCCCC1` stands inactive: 9.65%.
Under `O=C(Cn1cnc2c(OCc3ccccc3)ncnc21)NCCCn1ccnc1` stands inactive: -0.5%.
In the case of `Cc1nc2ccccc2n1CC(=O)NC1CCCCCC1` it was inactive: 7.46%; in that of `O=C(NC1CCCCC1)N1CCC(n2c(=O)[nH]c3ccccc32)CC1`, inactive: 17.8%; in that of `Cn1c(=O)c2c(nc(Sc3nc4ccccc4n3CC(=O)N3CCCCC3)n2C)n(C)c1=O`, inactive: 0.83%.
Take `CCC(C)[C@H](NC(=O)N1CCn2c1nc1ccccc12)C(=O)NCCc1ccccc1` (stereo not given in full): the activation is inactive: -11.1%.
In the case of `C[C@H](O)[C@@H]1C(=O)N2CCc3ccc(-c4ccccc4)cc3[C@@H]2C[C@@H]1N(C)C(=O)Nc1cc(Cl)cc(Cl)c1` it was inactive: 5.99%.
Under `CCC(=O)Nc1cccc(C(=O)/C=C/c2cccs2)c1` stands inactive: -3.24%; under `Cn1c(=O)c2c(ncn2CC(=O)N/N=C/c2ccco2)n(C)c1=O`, inactive: 2.65%; under `CCN(CC)CCn1c(=N)n(CCO)c2ccccc21`, inactive: 1.09%.
In the case of `COc1ccc(C2=NCC(CBr)S2)cc1` (stereo not given) it was inactive: -2.79%.
Turning to `CC(=O)N1CCc2cc(S(=O)(=O)NC(CC(C)C)C(=O)N3CCn4c3nc3ccccc34)ccc21` (stereo not given), the activation was inactive: -3.33%.
In the case of `CCOC(=O)CSc1nc2ccccc2n1CC(=O)N1CCN(c2ccccc2)CC1` it was inactive: -5.78%.
Under `c1ccc(CN2CCC3(CC2)Nc2ccccc2CO3)cc1` stands inactive: 1.46%.
In the case of `CSc1nc(N)nc2c1ncn2CC(=O)NCCCc1ccccc1` it was inactive: 3.27%.
Consider `Cn1c(=O)c2c(ncn2CC(=O)N2CCN(c3ccccc3F)CC2)n(C)c1=O`, for which the activation was inactive: -3.45%.
For `COc1cc(NC(=O)Cn2cnc3c(SC)nc(N)nc32)cc(OC)c1OC`, the activation is inactive: -2.09%.
Under `Cc1ccc(SCc2nc3ccccc3n2CC(=O)Nc2ccccc2)cc1` stands inactive: 2.91%.
In the case of `Cc1ccc2c(c1)C1CN(C)CCC1N2S(=O)(=O)c1ccc(Oc2ccc([N+](=O)[O-])cc2)cc1` (stereo not given) it was inactive: -5.62%.
In the case of `N#CCC(=O)N/N=C\c1cc(Br)ccc1OC/C=C/c1ccccc1` it was inactive: -2.7%; in that of `Cn1c(=O)c2c(nc(Cl)n2CC(=O)NC2(C#N)CCCCC2)n(C)c1=O`, inactive: 5.27%; in that of `Cc1cc(NC(=O)CSc2nc3ccccc3n2CC(=O)N2CC(C)CC(C)C2)no1` (stereo not given), inactive: 2.74%.
Consider `O=C(Cn1c(NCCO)nc2ccccc21)N1CCN(Cc2ccccc2)CC1`, for which the activation is inactive: -2.99%.
In the case of `NC(=O)CC(NC(=O)c1ccccc1)c1ccc(NC2CCN(Cc3ccccc3)CC2)c([N+](=O)[O-])c1` (stereo not given) it was inactive: 0.45%; in that of `Cn1c(=O)c2c(ncn2CC(=O)Nc2ccccc2)n(C)c1=O`, inactive: -11.9%.
Under `Nc1ccccc1CNc1nc(NCCO)nc2c1ncn2CCN1CCOCC1` stands inactive: -7.14%.
Under `N=c1n(CCN2CCCCC2)c2ccccc2n1CC(O)c1ccco1` (stereo not given) stands inactive: -2.44%; under `CC#CCCC(=O)N1C=Cc2ccccc2C1C#N` (stereo not given), inactive: -1.53%; under `CC(=O)N1C2C3N(C(C)=O)C1C1N(C(C)=O)C(C(N1C(C)=O)N3C(C)=O)N2C(C)=O`, inactive: 2.2%.
For the compound `Cn1ncc([N+](=O)[O-])c1C(=O)Nc1nc2ccccc2n1CCN1CCCCC1`, the activation is inactive: -4.84%.
In the case of `O=[N+]([O-])c1cccc2n[nH]nc12` it was inactive: 0.75%; in that of `COC(=O)c1sccc1NC(=O)Cn1cnc2c1c(=O)n(C)c(=O)n2C`, inactive: -5.61%.
In the case of `Cn1c(=O)[nH]c(=O)c2c1nc1n2CCN1Cc1ccccc1` it was inactive: 1.16%.
Under `N#CCCNC(=O)Cn1c(COc2ccc(Cl)cc2)nc2ccccc21` stands inactive: 3.11%.
As to `Cc1ccc(C)c(CN2CCC(n3nnc4cc(F)ccc43)CC2)c1`, the activation was inactive: -0.1%.
Turning to `Nc1nonc1-c1nc2ccccc2n1CC(=O)N1CCCCC1`, the activation was inactive: -1.31%.
In the case of `CCOc1ccccc1OCC(=O)NNC(=O)Cn1cnc2c1c(=O)n(C)c(=O)n2C` it was inactive: 1.38%; in that of `Cc1ccccc1Cn1c(=O)c2c(nc3n2CCN3Cc2ccco2)n(C)c1=O`, inactive: 3.38%.
In the case of `CC1CCCCC1NC(=O)Cn1cnc2c1c(=O)n(C)c(=O)n2C` (stereo not given) it was inactive: -2.38%; in that of `Cc1nc2ccccc2n1CC(=O)N/N=C/c1cccs1`, inactive: -0.83%; in that of `CSCC[C@H](NC(=O)N1CCn2c1nc1ccccc12)C(=O)N[C@H](Cc1ccccc1)C(=O)O`, inactive: 8.1%.
Under `COC(=O)c1ccccc1NC(=O)Cn1cnc2cc(C)c(C)cc21` stands inactive: -2.39%; under `Cc1ccc(NP(=O)(Oc2ccccc2)Oc2ccccc2)nc1`, inactive: 5.52%.
As for `CC1CC(C)CN(C(=O)Cn2c(-c3nonc3N)nc3ccccc32)C1` (stereo not given), the activation is inactive: 3.56%.
As to `O=[N+]([O-])c1ccc(NC2CCN(Cc3ccccc3)CC2)c([N+](=O)[O-])c1`, the activation is inactive: 0.3%.
With `Cc1csc2ncnc(NC3CCN(Cc4ccccc4)CC3)c12`, the activation was inactive: 3.08%.
In the case of `Cn1c(=O)[nH]c(=O)c2c1nc(CN1CCN(Cc3ccccc3)CC1)n2CC(N)=O` it was inactive: -1.88%.
Under `N=c1n(CCN2CCCCC2)c2ccccc2n1CC(O)COc1ccccc1` (stereo not given) stands inactive: -5.55%.
Under `COC(=O)c1ccc(NC(=O)Cn2c(-c3nonc3N)nc3ccccc32)cc1` stands inactive: 1.86%; under `Cc1ccc(OCC(O)Cn2c(=N)n(CCN3CCOCC3)c3ccccc32)cc1` (stereo not given), inactive: -3.67%.
As to `O=[N+]([O-])c1cc([N+](=O)[O-])c(CCNc2ccccc2)c([N+](=O)[O-])c1`, the activation is inactive: -1.99%.
Under `CCc1nc2c(n1)c1c(non1O)c1c2no[n+]1[O-]` stands inactive: -2.82%.
In the case of `Cn1c(=O)c2c(ncn2CC(=O)NC(C)(C)C)n(C)c1=O` it was inactive: 3.88%.
On to `CCN(Cc1ccccc1)C(=O)Cn1c(C(C)O)nc2ccccc21` (stereo not given), for which the activation was inactive: 0.87%.
In the case of `COc1ccc(CN(C)C(=O)Cn2cnc3c(NCc4ccccc4)ncnc32)cc1OC` it was inactive: -1.87%; in that of `CC(C)(C)C(=O)NC(Sc1ccncn1)C(Cl)(Cl)Cl` (stereo not given), inactive: 0.83%.
In the case of `CSCC[C@H](NC(=O)N1CCn2c1nc1ccccc12)C(=O)N[C@@H](C(=O)O)c1ccccc1` it was inactive: 0.74%.
In the case of `CCCCc1nc2ccccc2n1CC(=O)NN` it was inactive: -2.71%; in that of `c1ccc(CN2CCC(Nc3ncnc4sccc34)CC2)cc1`, inactive: 0.64%.
With `O=[N+]([O-])c1ccc2c(c1)nc1n2CCN(CC2CCCO2)C1` (stereo not given), the activation was inactive: -3.28%.
Consider `CN(C)C(=O)Cn1c(=O)n(S(=O)(=O)c2ccccc2)c2ccccc21`, for which the activation is inactive: 3.41%.
Regarding `C/C(=N\NC(=O)Cn1cnc2ccccc21)c1cccs1`, the activation is inactive: -6.8%.
Under `CSc1nc2ccccc2n1CC(=O)N1CCCCC1` stands inactive: -9.2%.
For `Cn1c(=O)c2c(ncn2CC(=O)Nc2ccc(N3CCOCC3)cc2)n(C)c1=O`, the activation was inactive: 6.03%.
In the case of `C/C(=N\NC(=O)Cn1c(-c2ccccn2)nc2ccccc21)c1ccccc1` it was inactive: -4.36%.
In the case of `CC(C)OC(=O)c1ccc(NC(=O)Cn2c(-c3nonc3N)nc3ccccc32)cc1` it was inactive: 2.67%; in that of `Cc1ccc2c(c1)C1CN(C)CCC1N2C(=O)Nc1cccc(C(F)(F)F)c1` (stereo not given), inactive: -2.4%; in that of `CSCC[C@H](NC(=O)N1CCn2c1nc1ccccc12)C(=O)NCc1ccco1`, inactive: 0.01%.
In the case of `CC(C)(C)NC(=O)Cn1c(SCC(=O)N2CCCCCC2)nc2ccccc21` it was inactive: 7.6%; in that of `O=[N+]([O-])c1ncn(CCn2ncnc2[N+](=O)[O-])n1`, inactive: 0.4%; in that of `Cn1c(=O)c2ncn(CC(=O)Nc3nc(-c4ccc(Cl)cc4)cs3)c2n(C)c1=O`, inactive: 2.34%.
On to `CCCn1c(=O)[nH]c(=O)c2c1nc(-c1ccc(OC(F)F)cc1)n2CCN1CCOCC1`, for which the activation was inactive: 3.25%.
Turning to `CCOc1ccc(NC(=O)CN(C)C(=O)Cn2cnc3c2c(=O)n(C)c(=O)n3C)cc1OCC`, the activation was inactive: 2.86%.
